Patent publication US10548982B2, “Reversible covalent linkage of functional molecules” (priority 2009, dated 2020)

The chains behind the UniProt entries cited, without tags or fusion partners. Where a name states a change or a piece, a line headed by the entry shows the natural chain unless it says otherwise.
UniProt P30874: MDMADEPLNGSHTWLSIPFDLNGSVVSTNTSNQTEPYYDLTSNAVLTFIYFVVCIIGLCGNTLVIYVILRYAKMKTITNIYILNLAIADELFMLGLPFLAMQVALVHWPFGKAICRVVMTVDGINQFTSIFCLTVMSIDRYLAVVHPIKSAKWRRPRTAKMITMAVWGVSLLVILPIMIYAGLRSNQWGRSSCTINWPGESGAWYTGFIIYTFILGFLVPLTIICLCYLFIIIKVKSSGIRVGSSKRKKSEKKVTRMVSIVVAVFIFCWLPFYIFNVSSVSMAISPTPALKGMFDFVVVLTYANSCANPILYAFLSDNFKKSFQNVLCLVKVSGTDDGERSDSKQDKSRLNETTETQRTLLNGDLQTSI

Target: T1, human somatostatin receptor 2 (Homo sapiens, UniProt P30874)
T1 construct: host or cells: HEK293 cells stably expressing Kir3.1 and Kir3.2A
Assay: whole cell patch-clamp current recordings of GIRK currents
Format: cell-based
Conditions: HEK 293 cells expressing HKIR3.1/3.2 channel and human somatostatin receptor 2; 20 μM; clamped at −60 mV
Description: HEK 293 cells expressing HKIR3.1/3.2 channel and human somatostatin receptor 2 were treated with these compounds, and whole cell patch-clamp current recordings taken. […] Cell Culture
Cell-culture methods and the generation of stable cell lines were carried out as described in J Biol Chem 275, 921-9 (2000). HEK293 cells (human embryonic kidney cell line) stably expressing Kir3.1 and Kir3.2A channels were maintained in minimum essential medium supplemented with 10% foetal calf serum and 727 μg of G418 (Invitrogen), at 37° C. in humidified atmosphere (95% O2, 5% CO2). Cells were transiently transfected with SSTR2 DNA (Missouri S&T cDNA Resource Center) along with pEGFP-N1 (Clontech) for visualization of transfected cells using epifluorescence. Transfections were performed with 5 μl of Fugene HD (Roche) and 800 ng SSTR2-DNA and 40 ng EGFP-DNA per 97 μl of cell culture medium (containing no serum or antibiotics).
Bridged somatostatins were prepared as described above. Somatostatin and its analogues were dialysed for 24 h at 4° C. in buffer (50 mM sodium phosphate, pH 6.2) to remove the organic solvents. After dialysis the concentration was determined and the peptides stored at 4° C. A final concentration of 20 μM somatostatin and analogues were used (dilution was done in the extracellular patch-clamp buffer).
Whole cell patch-clamp current recordings were performed with an Axopatch 200B amplifier (Axon Instruments) using fire-polished pipettes with a resistance of 3-4 MS pulled from filamented borosilicated glass capillaries (Harvard Apparatus, 1.5 mm OD×1.17 mm ID). Data was acquired and analysed via a Digidata 1322A interface (Axon Instruments) and pCLAMP software (version 8.1, Axon Instruments). A fast perfusion system was used to apply somatostatin and analogues (Rapid Solution Changer, RSC-160, Bio-Logic France). Cells were clamped at −60 mV. […] For each cell it was assessed if flow artifacts resulting from the pressure of drug application were present. […]

Substance: fluorescein dibromomaleimide-bridged analogue: somatostatin bridged with N-fluorescein dibromomaleimide
- activation of GIRK currents (current amplitude): robust activation of GIRK currents in an amplitude comparable to somatostatin itself

Substance: dibromomaleimide bridged analogue: somatostatin whose reduced disulfide cysteines are bridged by reaction with 2,3-dibromomaleimide
- activation of GIRK currents (current amplitude): robust activation of GIRK currents in an amplitude comparable to somatostatin itself

Substance: PEGylated-dibromomaleimide bridged analogue: somatostatin bridged with N-PEG dibromomaleimide derivative
- activation of GIRK currents (current amplitude): robust activation of GIRK currents in an amplitude comparable to somatostatin itself
